Reference: BindingDB's records for PubMed 10779381 (University of Ferrara, 2000)
Several values for one entry are separate records, joined by “and”; a condition that tells them apart may be missing. Identical values can stand only once.

Chains of the proteins cited; added tags and fusions are not shown.
UniProt P0DMS8, whole entry: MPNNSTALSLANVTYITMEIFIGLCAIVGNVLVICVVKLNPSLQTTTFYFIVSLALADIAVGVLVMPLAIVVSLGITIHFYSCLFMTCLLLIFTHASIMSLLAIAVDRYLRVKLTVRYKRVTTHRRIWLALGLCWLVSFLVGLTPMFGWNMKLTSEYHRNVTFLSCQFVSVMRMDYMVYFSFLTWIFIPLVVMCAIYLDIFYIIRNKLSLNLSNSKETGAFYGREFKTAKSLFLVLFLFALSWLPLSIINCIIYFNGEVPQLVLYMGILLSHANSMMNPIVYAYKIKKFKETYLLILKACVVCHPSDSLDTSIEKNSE

Biological target: Adenosine receptor A3 (Homo sapiens, UniProt P0DMS8)

Question: With CCCn1cc2c(nc(NC(=O)Nc3ccc(OC)cc3)n3nc(-c4ccco4)nc23)n1 [J1.251.181G] as the compound, how does the Ki read?
Answer: 0.85 nM and 0.86 nM
